Experimental data published in PubChem BioAssay AID651612 (The Scripps Research Institute Molecular Screening Center, 2012).
This is a selection; strong and weak results do not stand in their true shares. Activity calls are given as the source filed them. Cut-off read from the data, not from the text of the source: active = inhibition above about 23%; inactive = the rest.

Chains of the proteins cited; added tags and fusions are not shown.
UniProt Q00G26, whole entry, looked up: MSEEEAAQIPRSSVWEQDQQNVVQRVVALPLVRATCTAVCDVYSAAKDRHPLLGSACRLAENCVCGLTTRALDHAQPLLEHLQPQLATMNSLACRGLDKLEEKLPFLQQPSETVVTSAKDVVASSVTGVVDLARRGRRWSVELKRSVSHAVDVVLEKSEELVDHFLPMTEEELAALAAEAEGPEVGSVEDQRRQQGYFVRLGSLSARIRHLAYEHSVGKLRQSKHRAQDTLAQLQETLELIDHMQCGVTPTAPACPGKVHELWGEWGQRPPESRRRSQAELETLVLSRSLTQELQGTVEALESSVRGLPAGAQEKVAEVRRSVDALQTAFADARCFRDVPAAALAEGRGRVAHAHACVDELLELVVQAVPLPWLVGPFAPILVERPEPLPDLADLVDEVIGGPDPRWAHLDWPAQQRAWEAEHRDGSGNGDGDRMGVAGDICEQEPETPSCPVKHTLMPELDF
UniProt Q8WTS1, whole entry, looked up: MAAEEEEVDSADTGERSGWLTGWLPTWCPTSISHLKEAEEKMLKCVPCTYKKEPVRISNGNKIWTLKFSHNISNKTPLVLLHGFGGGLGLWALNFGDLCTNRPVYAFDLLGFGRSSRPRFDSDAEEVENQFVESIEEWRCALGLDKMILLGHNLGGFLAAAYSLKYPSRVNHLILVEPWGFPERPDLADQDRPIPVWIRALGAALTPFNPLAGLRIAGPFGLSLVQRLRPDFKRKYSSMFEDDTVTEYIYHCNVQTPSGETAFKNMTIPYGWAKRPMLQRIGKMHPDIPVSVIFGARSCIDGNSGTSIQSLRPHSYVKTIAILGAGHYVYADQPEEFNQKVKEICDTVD

molecular target: Perilipin-5 (Homo sapiens) + 1-acylglycerol-3-phosphate O-acyltransferase ABHD5 (Homo sapiens) (UniProt Q00G26+Q8WTS1); experiment: ABHD5-PLIN5 interaction inhibitors, confirmation, biochemical, luminescence (AID 651612); settings: at 4 µM, hits give high values;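 note: 0% = DMSO vehicle wells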

SMILES | inhibition
CCC(=O)N(c1ccccc1)C1(COC)CCN(CCc2cccs2)CC1 | active: 75.8%
